Consider one compound from patent publication US20090149436A1, “CASPASE INHIBITOR” (Astellas Pharma Inc., priority 2004, published 2009).

As usually defined, the IC50 is the midpoint of a concentration-inhibition curve.

The assay deals with T1, human recombinant caspase 3 (Homo sapiens, UniProt P42574).
T1 construct: purchased CALBIOCHEM 235417
T1 sequence (P42574 29-175 limits assumed): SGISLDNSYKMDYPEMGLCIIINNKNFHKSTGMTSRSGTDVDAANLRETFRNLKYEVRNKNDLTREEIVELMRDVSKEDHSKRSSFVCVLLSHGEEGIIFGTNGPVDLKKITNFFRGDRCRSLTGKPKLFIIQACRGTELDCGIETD
T1 sequence (P42574 176-277 limits assumed): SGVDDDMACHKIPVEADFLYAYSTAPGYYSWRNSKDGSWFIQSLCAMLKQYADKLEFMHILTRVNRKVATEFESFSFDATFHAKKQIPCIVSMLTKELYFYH
Put plainly: Assay of inhibitory activity against human recombinant caspase 3 (fluorogenic substrate Ac-DEVD-MCA). It counts as biochemical. The method, then: A reaction buffer containing 10% sucrose, 0.1% CHAPS, 2 mM dithiothreitol in 25 mM HEPES (pH 7.5) is prepared. A pharmaceutical agent-diluted solution (50 μl) containing the above-mentioned test compound diluted in the buffers and 4 μM buffer solution (25 μl) of a substrate Ac-Asp-Glu-Val-Asp-4-methyl-coumaryl-7-amide (PEPTIDE INSTITUTE, INC.) are dispensed to a light shading type 96 well microplate per well. Thereto is added 25 μl of human recombinant caspase 3 (CALBIOCHEM catalog No. 235417), 500 U/ml, to start the reaction. After incubation at room temperature for 2 hr. the reaction quench buffer (0.1 M monochloroacetic acids 0.03 M sodium acetate, 0.15 M acetic acid (pH 4.3)) is added by 100 μl per well. The fluorescence of 7-amino-4-methylcoumarin ([…]) released by the enzyme reaction is measured using a fluorophotometer (Ex. 355 nm, Em. 460 nm). The enzyme activity is calculated from the analytical curve based on the fluorescence strength of AMC (PEPTIDE INSTITUTE, INC.).
The compounds of the above-mentioned 1. were examined for the activity inhibitory action on human recombinant caspase 3. In this experiment, acetyl-L-aspartyl-L-glutamyl-L-valyl-L-aspart-1-al (DEVD) (PEPTIDE INSTITUTE, INC.) was used as the standard product of caspase 3 inhibitor.
Using dicyanocobinamide as a caspase 3 inhibitor, experiments similar to the above-mentioned Example 1 were performed with different substrate concentrations (2, 4, 6 and 8 nM). The experiment results are shown in FIG. 3 as Lineweaver-Burk plot.

Where two headings read alike, the source gives them in different places.

Turning to `CC(=O)N[C@@H](CC(=O)O)C(=O)N[C@@H](CCC(=O)O)C(=O)N[C@H](C(=O)N[C@H](C=O)CC(=O)O)C(C)C` [DEVD, acetyl-L-aspartyl-L-glutamyl-L-valyl-L-aspart-1-al, reference compound], the 50% inhibitory concentration (IC50) runs as follows: (FIG. 1 lower panel, read-out: IC50, inhibitory activity against human recombinant caspase 3) 3.54 nM; (FIG. 1 upper panel, read-out: IC50, inhibitory activity against human recombinant caspase 3) 5.19 nM; (FIG. 2, read-out: IC50, caspase (Enzyme Specificity)) 5.19 nM.
